From patent publication US20080312230A1, “Organic Compounds” (Novartis AG, priority 2005, published 2008) come the findings set out here.

The target of assay [1] is T1, CRTh2 receptor (Homo sapiens, UniProt Q9Y5Y4).
T1 construct: expressed in transfected cells; host or cells: CHO.K1 (Chinese Hamster Ovary)
T1 sequence (Q9Y5Y4 1-395): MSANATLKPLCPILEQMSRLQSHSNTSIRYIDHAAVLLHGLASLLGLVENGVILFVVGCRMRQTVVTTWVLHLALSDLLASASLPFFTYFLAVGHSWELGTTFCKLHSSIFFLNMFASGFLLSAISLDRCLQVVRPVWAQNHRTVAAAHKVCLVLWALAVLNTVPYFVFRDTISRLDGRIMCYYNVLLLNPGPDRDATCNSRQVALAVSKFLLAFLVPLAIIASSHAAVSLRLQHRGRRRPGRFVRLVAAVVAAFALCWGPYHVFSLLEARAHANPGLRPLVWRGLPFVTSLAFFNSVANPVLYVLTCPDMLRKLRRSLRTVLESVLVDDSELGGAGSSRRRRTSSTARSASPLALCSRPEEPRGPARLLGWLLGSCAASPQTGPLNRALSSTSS
As to the kind of experiment: Filtration binding assay: [3H]-PGD2 competition on CHO.K1-CRTh2 membranes. To be noted: competition with 2.5 nM [3H]-PGD2, CHO.K1-CRTh2 membranes, Cheng-Prussoff; read-out: Ki values in the SPA binding assay. Here is the method: Filtration Binding Assay Protocol
The binding of CRTh2 antagonists is determined using membranes prepared from human CRTh2-expressing Chinese Hamster Ovary cells (CHO.K1-CRTh2). To produce cell membranes CHO.K1-CRTh2 cells cultured in roller bottles are harvested using cell dissociation buffer (Invitrogen). The cells are pelleted by centrifugation (167 g, 5 min). The cell pellet is incubated in hypotonic buffer (15 mM Tris-OH, 2 mM MgCl2, 0.3 mM EDTA, 1 mM EGTA, 1× Complete™ tablet) at 4° C. for 30 min. At 4° C. cells are homogenized using a Polytron® (IKA Ultra Turrax T25) for 5 bursts of 1 second. The homogenate is centrifuged (Beckman Optima TM TL Ultracentrifuge, 48000 g, 30 min at 4° C.). […]
The binding of [^3H]-PGD2 (157 Ci/mmol) to CHO.K1-CRTh2 membranes is determined in the absence (total binding) and presence (non-specific binding) of unlabelled PGD2 (1 μM). […]
The plates are incubated at room temperature on a shaker for 1 hour, and then harvested (Tomtec Harvester 9600) onto GF/C filter plates using wash buffer (10 mM HEPES-KOH, pH 7.4). […] Plates are then counted using a Packard Top Count instrument, Plates are then read on the Packard Topcount with the 3H Scintillation program (1 min per well).
Ki (dissocation constant for the inhibition) values for the CRTh2 antagonists are reported. Ki values are determined using Sigma Plot™ software, using the Cheng-Prussoff equation. […]

The target in assay [2] is T1, CRTh2 receptor. Put plainly: CRTH2 cAMP functional assay in CHO.K1-CRTh2 cells. Type of assay: cell-based. How it is done:
The assay plate is incubated at room temperature on a shaker for 15 minutes.
A mix of agonist (10 nM Prostaglandin D2) and 5 μM forskolin is prepared in assay stimulation buffer and added to the assay plate (5 μL/well).
In addition, a cAMP standard is serially diluted in assay stimulation buffer and added to separate empty wells on the assay plate (20 μL/well).
The assay plate is incubated at room temperature on a shaker for 60 minutes.
The resulting lysis mix is added to all wells of the assay plate (40 μL/well).
The assay plate is sealed with Topseal-S™ and incubated in the dark at room temperature on a shaker for 45 minutes. The plate is then counted using a Packard Fusion™ instrument.
The resulting counts per minute are converted to nM cAMP by using the prepared cAMP standard curve.

For orientation: Ki means the equilibrium dissociation constant of an inhibitor or competing ligand from its target. As usually defined, the IC50 is the concentration needed to halve the response being measured. A high value points to weaker potency in that assay. With `Cc1c(CC(=O)O)c2cccnc2n1S(=O)(=O)c1ccc(F)c(F)c1` [Example 59, [1-(3,4-Difluoro-benzenesulfonyl)-2-methyl-1H-pyrrolo[2,3-b]pyridin-3-yl]-acetic acid], in assay [1], the Ki is 33 nM. Besides, it took 150 nM to reach half-maximal inhibition in assay [2] (IC50).

As to `Cc1c(CC(=O)O)c2cccnc2n1S(=O)(=O)c1ccc(F)c(C#N)c1` [Example 54, [1-(3-Cyano-4-fluoro-benzenesulfonyl)-2-methyl-1H-pyrrolo[2,3-b]pyridin-3-yl]-acetic acid], the Ki in assay [1] was 37 nM. This compound also showed an IC50 in assay [2] of 168 nM.
